Results from US20010013317A1, “Medium for coloring live bait worms” (priority 1999, published 2001).

Experiment: Solubility of colorant in water
Details: at 25° C.

O=S(=O)([O-])c1ccc(N=Nc2c(O)ccc3cc(S(=O)(=O)[O-])ccc23)cc1.[Na+].[Na+] [FD & C Yellow 6]
Solubility in water: 19 mg/mL
